Experimental findings from patent US5468499A, “Liposomes containing the salt of phosphoramide mustard and related compounds” (Ohio State University, priority 1993, dated 1995) are described below.

This assay has as its system murine leukemic L1210 cells. Kind of assay: Cytotoxicity of free and liposome-entrapped isophosphoramide mustard to L1210 cells. To be noted: 72 hours.

Where “and” joins values, the source holds several entries; their conditions need not be identical. Equal values may be shown once.

Regarding `O=P(O)(NCCCl)NCCCl`, the “L1210 cell growth versus concentration” value (as free IPM concentration increased) is listed as “the cell concentration decreased”. For the same molecule, the “% of control” value by setting is: (free IPM 5 μM) 0.6270 % of control; (free IPM 10 μM) 0.3391 % of control; (free IPM 25 μM) 0.2491 % of control; (free IPM 50 μM) 0.1750 % of control; (free IPM 100 μM) 0.1508 % of control. The “average (of cell count readings)” value (free IPM 5 μM) is 13475 and 12963 and 13696; the “average (of cell count readings)” value (free IPM 10 μM) was 7138 and 7061 and 7507; the “average (of cell count readings)” value (free IPM 25 μM) is 5078 and 5522 and 5345; the “average (of cell count readings)” value (free IPM 50 μM) was 3598 and 3705 and 3896; the “average (of cell count readings)” value (free IPM 100 μM) was 3001 and 3799 and 2854. Also, the “cell #/ml” value (free IPM 5 μM) was 535133 #/ml; the “cell #/ml” value (free IPM 10 μM) is recorded as 289422 #/ml; the “cell #/ml” value (free IPM 25 μM) is reported as 212609 #/ml; the “cell #/ml” value (free IPM 50 μM) is given as 149320 #/ml; the “cell #/ml” value (free IPM 100 μM) is 128720 #/ml.
